According to US8383136B2, “Micelle encapsulation of therapeutic agents” (Wisconsin Alumni Research Foundation, priority 2009, dated 2013):

Assays:
[1] = Physical stability / drug loss from PEG-b-PLA micelles after 24 hours (turbidity, HPLC); format: physicochemical; settings: analyte 17-AAG
Protocol: Turbidity measurements were used to evaluate the physical stability of drug-loaded PEG-b-PLA micelles. A CARY 50 BIO UV-Visible spectrophotometer equipped with dip probe was used to measure turbidity. Micellar solutions were diluted six times, for a final concentration of PEG-b-PLA of 5 mg/mL, with DD H2O and filtered through 0.45 μm filter. […] Each measurement was performed in triplicate.

[2] = Drug solubilization by PEG-b-PLA micelles (drug level in water, reverse phase HPLC); settings: SDM or MDM, PEG-b-PLA (4.2K:1.9K) micelles

| SMILES | % w/w drug(s) left @ 24 hr [1] [% w/w] | drug level in water ([2]; analyte 17-AAG) [µg/mL] | drug level in water ([2]; analyte etoposide, listed as ETO) [µg/mL] |
| --- | --- | --- | --- |
| C=CCNC1=C2C[C@@H](C)C[C@H](OC)[C@H](O)[C@@H](C)/C=C(\C)[C@H](OC(N)=O)[C@@H](OC)/C=C\C=C(/C)C(=O)NC(=CC1=O)C2=O [17-AAG, 17-allylamino-17-demethoxygeldanamycin] | 98.6 ± 2.4 | 4210 | – |
| COc1cc([C@@H]2c3cc4c(cc3[C@@H](O[C@@H]3O[C@@H]5CO[C@@H](C)O[C@H]5[C@H](O)[C@H]3O)[C@H]3COC(=O)[C@H]23)OCO4)cc(OC)c1O [Etoposide] | – | – | 3170 |
